Assay results: ChEMBL document CHEMBL5360629, “AI-Powered Virtual Screening of Large Compound Libraries Leads to the Discovery of Novel Inhibitors of Sirtuin-1” (J Med Chem, 2023)
The source made the active and inactive calls. No cut-off for these calls is given here.

The chains behind the UniProt entries cited, without tags or fusion partners. Where a name states a change or a piece, a line headed by the entry shows the natural chain unless it says otherwise.
UniProt P43166: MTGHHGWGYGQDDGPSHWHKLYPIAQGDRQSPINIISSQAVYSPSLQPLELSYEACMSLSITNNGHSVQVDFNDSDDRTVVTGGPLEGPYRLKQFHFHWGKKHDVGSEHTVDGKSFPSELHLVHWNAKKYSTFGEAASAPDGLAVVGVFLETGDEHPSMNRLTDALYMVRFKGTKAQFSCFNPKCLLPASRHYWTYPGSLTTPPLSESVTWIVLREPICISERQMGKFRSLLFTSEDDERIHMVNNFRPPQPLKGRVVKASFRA
UniProt P00915: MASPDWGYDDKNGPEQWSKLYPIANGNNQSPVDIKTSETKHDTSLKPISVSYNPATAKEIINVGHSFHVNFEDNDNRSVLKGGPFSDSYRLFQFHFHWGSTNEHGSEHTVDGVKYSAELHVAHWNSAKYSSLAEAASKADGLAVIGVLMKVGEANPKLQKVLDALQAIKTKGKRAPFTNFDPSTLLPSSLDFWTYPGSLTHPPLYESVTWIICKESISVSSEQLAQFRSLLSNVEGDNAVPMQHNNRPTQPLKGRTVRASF
UniProt P07451: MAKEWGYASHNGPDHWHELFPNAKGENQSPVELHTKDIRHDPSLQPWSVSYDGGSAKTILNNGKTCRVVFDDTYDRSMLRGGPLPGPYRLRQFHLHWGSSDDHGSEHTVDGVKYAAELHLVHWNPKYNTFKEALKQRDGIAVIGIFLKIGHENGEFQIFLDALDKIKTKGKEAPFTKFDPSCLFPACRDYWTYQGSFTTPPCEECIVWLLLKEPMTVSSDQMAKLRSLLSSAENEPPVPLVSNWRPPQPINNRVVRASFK
UniProt P23280: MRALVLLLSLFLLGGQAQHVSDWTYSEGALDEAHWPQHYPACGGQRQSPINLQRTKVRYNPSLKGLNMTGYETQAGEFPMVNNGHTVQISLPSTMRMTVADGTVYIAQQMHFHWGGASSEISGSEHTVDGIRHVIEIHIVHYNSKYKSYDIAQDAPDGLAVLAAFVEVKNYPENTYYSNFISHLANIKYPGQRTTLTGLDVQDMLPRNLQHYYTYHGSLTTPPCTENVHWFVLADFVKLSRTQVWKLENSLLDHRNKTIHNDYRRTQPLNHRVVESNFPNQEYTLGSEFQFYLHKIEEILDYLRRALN
UniProt O43570: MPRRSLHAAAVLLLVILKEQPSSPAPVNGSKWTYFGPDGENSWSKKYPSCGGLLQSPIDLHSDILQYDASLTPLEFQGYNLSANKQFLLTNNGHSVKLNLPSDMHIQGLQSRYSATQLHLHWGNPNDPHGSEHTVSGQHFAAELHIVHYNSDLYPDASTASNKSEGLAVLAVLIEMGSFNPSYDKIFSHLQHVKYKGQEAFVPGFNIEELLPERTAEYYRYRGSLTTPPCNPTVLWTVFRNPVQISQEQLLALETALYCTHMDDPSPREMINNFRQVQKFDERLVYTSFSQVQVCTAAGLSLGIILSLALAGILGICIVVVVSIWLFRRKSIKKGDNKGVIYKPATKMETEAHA
UniProt Q9ULX7: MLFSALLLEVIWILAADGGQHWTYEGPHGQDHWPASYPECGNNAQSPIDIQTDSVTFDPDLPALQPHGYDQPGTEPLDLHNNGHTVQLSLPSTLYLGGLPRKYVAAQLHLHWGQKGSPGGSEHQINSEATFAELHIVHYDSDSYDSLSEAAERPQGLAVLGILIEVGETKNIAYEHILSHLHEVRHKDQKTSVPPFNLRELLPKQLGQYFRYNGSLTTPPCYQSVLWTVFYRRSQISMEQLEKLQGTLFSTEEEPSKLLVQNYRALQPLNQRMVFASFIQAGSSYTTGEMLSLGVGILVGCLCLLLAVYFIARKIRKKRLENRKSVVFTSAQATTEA
UniProt P22748: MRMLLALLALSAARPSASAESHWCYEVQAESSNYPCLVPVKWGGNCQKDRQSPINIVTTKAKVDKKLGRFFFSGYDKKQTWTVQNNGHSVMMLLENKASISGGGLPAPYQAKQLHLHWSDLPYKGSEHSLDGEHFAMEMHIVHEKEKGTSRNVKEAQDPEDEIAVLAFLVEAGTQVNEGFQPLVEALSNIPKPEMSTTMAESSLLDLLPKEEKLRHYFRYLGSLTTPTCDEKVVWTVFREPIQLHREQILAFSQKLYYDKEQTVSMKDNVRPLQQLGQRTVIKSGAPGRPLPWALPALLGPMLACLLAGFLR
UniProt Q8N1Q1: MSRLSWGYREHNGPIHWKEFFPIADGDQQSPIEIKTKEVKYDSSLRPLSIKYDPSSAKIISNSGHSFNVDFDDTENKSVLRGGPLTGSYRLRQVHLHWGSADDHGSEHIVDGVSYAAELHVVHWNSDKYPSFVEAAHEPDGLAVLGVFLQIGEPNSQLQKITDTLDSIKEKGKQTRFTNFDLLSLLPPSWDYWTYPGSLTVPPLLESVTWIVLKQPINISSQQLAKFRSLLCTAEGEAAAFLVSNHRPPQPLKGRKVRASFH
UniProt Q9Y2D0: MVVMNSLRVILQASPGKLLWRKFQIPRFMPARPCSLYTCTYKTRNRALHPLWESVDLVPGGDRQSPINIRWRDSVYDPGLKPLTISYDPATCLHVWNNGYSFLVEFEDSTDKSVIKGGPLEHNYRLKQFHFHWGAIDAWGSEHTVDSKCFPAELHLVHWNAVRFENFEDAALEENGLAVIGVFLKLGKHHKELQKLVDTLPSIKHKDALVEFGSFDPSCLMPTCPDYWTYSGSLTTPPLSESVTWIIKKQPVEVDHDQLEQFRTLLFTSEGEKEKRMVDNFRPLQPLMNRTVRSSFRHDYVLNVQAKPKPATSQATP
UniProt P35218: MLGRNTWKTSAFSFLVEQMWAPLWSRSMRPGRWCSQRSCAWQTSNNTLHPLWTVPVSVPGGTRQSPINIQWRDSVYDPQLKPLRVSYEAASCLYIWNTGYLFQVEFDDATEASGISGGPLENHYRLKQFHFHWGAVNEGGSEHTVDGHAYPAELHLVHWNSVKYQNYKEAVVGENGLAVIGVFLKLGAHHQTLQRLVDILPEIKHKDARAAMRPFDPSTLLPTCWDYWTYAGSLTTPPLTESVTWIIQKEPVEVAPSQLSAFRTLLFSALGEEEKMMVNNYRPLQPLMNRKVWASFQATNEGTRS

What follows are molecules tested against Carbonic anhydrase (Homo sapiens) (UniProt P00918+P43166+P00915+P07451+P23280+O43570+Q9ULX7+Q16790+P22748+Q8N1Q1+Q9Y2D0+P35218) (assay: Binding affinity to carbonic anhydrase (unknown origin) assessed as change in melting temperature incubated for 15 mins by Sypro orange staining based thermal scanning analysis). Details: dose 0.01-1000 µM.
Format: protein assay

Compound | Activity
O=C(NCCc1c[nH]c2ccccc12)c1ccc(F)cc1 | Dose-Dependent Effect
O=C(Nc1ccccc1)Nc1ccc(NC(=O)c2ccccc2)cc1 | Dose-Dependent Effect
O=C(Nc1ccccc1)Nc1cccc(NC(=O)c2ccccc2)c1 | inactive
O=C(NCCc1c[nH]c2ccccc12)c1ccc(Cl)cc1 | Dose-Dependent Effect
Cc1ccc(C(=O)NCCc2c[nH]c3ccccc23)cc1 | Dose-Dependent Effect

Second part, the molecule after the results:

Activity | Compound
Dose-Dependent Effect | O=C(NCCc1c[nH]c2ccccc12)c1cc2ccccc2cc1O
Dose-Dependent Effect | O=C(NCCc1c[nH]c2ccccc12)c1n[nH]c2ccccc12
